The values below are quoted from earlier work in US20090181890A1, “Amylin and Amylin Agonists for Treating Psychiatric Diseases and Disorders” (Amylin Pharmaceuticals , Inc., priority 2006, published 2009).

SMILES strings stand for the structures.

For this series the following is noted: compared to human amylin; cited from earlier work.

Turning to `CC[C@H](C)[C@H](NC(=O)[C@@H]1CCCN1C(=O)CNC(=O)[C@H](Cc1ccccc1)NC(=O)[C@H](CC(N)=O)NC(=O)[C@H](CC(N)=O)NC(=O)[C@H](CO)NC(=O)[C@H](CO)NC(=O)[C@H](Cc1c[nH]cn1)NC(=O)[C@@H](NC(=O)[C@H](CC(C)C)NC(=O)[C@H](Cc1ccccc1)NC(=O)[C@H](CC(N)=O)NC(=O)[C@H](C)NC(=O)[C@H](CC(C)C)NC(=O)[C@H](CCCNC(=N)N)NC(=O)[C@H](CCC(N)=O)NC(=O)[C@@H](NC(=O)[C@H](C)NC(=O)[C@@H]1CSSC[C@H](NC(=O)[C@@H](N)CCCCN)C(=O)N[C@@H](CC(N)=O)C(=O)N[C@@H]([C@@H](C)O)C(=O)N[C@@H](C)C(=O)N[C@@H]([C@@H](C)O)C(=O)N1)[C@@H](C)O)C(C)C)C(=O)N[C@@H](CC(C)C)C(=O)N1CCC[C@H]1C(=O)N1CCC[C@H]1C(=O)N[C@H](C(=O)N[C@@H](CC(N)=O)C(=O)N[C@H](C(=O)NCC(=O)N[C@@H](CO)C(=O)N[C@@H](CC(N)=O)C(=O)N[C@H](C(=O)N[C@@H](Cc1ccc(O)cc1)C(N)=O)[C@@H](C)O)C(C)C)[C@@H](C)O` [^25,28,29Pro-h-amylin], the solubility characteristics entry is “more desirable”.
